Source: PMC4153963 (Drugs in R&D, 2014)

Format: in vivo, human (healthy adult subjects)
Conditions: human, plasma, oral

Tmax: 1.5 h
Structure (SMILES): COc1ccc2[nH]c([S+]([O-])Cc3ncc(C)c(OC)c3C)nc2c1 (stereo not shown) [Omeprazole]
